Assay [1] is described as follows: NCI Yeast Anticancer Drug Screen. Data for the rad50 strain (AID 155).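 Note: 0% = growth of vehicle-only cultures of the same strain.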 Particulars: S. cerevisiae rad50 strain growth inhibition, active compounds read high.
The nature of assay [2]: NCI Yeast Anticancer Drug Screen. Data for the mec2-1 strain (AID 157). Particulars: S. cerevisiae mec2-1 strain, active compounds read high.
The nature of assay [3]: NCI Yeast Anticancer Drug Screen. Data for the sgs1 mgt1 strain (AID 161).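 Note: 0% = growth of cultures given vehicle only.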 Particulars: S. cerevisiae sgs1 mgt1 strain, active compounds read high.
The nature of assay [4]: NCI Yeast Anticancer Drug Screen. Data for the cln2 rad14 strain (AID 165).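 Note: 0% = growth equal to vehicle treated cultures.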 As to conditions: S. cerevisiae cln2 rad14 strain, active compounds read high.
Assay [5] is described as follows: NCI Yeast Anticancer Drug Screen. Data for the bub3 strain (AID 167). Particulars: S. cerevisiae bub3 mutant strain, active compounds read high.
Assay [6] can be described thus: NCI Yeast Anticancer Drug Screen. Data for the mlh1 rad18 strain (AID 175). Particulars: S. cerevisiae mlh1 rad18 strain growth inhibition, active compounds read high.
The mark [7] stands for this setting: at 5.0 µM (retest, dose inferred, filed as 0.5).
[8] abbreviates: at 50.0 µM (retest, dose inferred, filed as 5.0).

Only a part is listed here, and it is no random draw. Some results for these compounds are left out of this collection, so the calls shown say nothing about other tests. Activity calls are given as the source filed them. Cut-off read from the data, not from the text of the source: active = growth inhibition above about 70%; inactive = the rest.

This passage reports growth inhibition results from PubChem BioAssay (NCI).

Turning to `O=C(OC1CN2CCC1CC2)C(O)(Cc1ccccc1)C1CC1` (configuration not stated), the growth inhibition in assay [1] (at 50.0 µM) is inactive: 38%; in assay [2] (at 50.0 µM), inactive: 31.2%; in assay [3] (at 50.0 µM), inactive: 49%; in assay [4] (at 50.0 µM) it was inactive: 32.4%; in assay [5] (at 50.0 µM) it was inactive: 41%; in assay [6] (at 50.0 µM), inactive: 40.5%.
As to `CN(CCBr)CCBr`, the growth inhibition was active: 99% in assay [1] (setting [7]); active: 100% in assay [1] (setting [8]); active: 85% in assay [1] (at 50.0 µM); active: 100% in assay [2] (setting [7]); active: 100% in assay [2] (setting [8]); active: 88.2% in assay [2] (at 50.0 µM). The growth inhibition in assay [3] (setting [7]) was active: 99%; in assay [3] (setting [8]) it was active: 100%; in assay [3] (at 50.0 µM), active: 91.5%; in assay [4] (setting [7]), active: 98%; in assay [4] (setting [8]), active: 99%; in assay [4] (at 50.0 µM), active: 90.9%. Moreover, the growth inhibition was active: 99% in assay [5] (setting [7]); active: 100% in assay [5] (setting [8]); active: 92.2% in assay [5] (at 50.0 µM); active: 99% in assay [6] (setting [7]); active: 100% in assay [6] (setting [8]); active: 93.4% in assay [6] (at 50.0 µM).
As to `N#CC(C#N)=Cc1ccccc1`, the growth inhibition is inactive: 7.1% in assay [1] (at 50.0 µM); inactive: -11.4% in assay [2] (at 50.0 µM); inactive: 11.4% in assay [3] (at 50.0 µM); inactive: -16.6% in assay [4] (at 50.0 µM); inactive: 6.9% in assay [5] (at 50.0 µM); inactive: 10.1% in assay [6] (at 50.0 µM).
Turning to `CCC1C(OC(=O)C(O)(c2ccccc2)c2ccccc2)C(C)(C)C1N1CCCCC1` (configuration not stated), the growth inhibition in assay [1] (at 50.0 µM) is inactive: -2.65%; in assay [2] (at 50.0 µM) it was inactive: 15.8%; in assay [3] (at 50.0 µM), inactive: -11.9%; in assay [4] (at 50.0 µM), inactive: 19.1%; in assay [5] (at 50.0 µM), inactive: -3.15%; in assay [6] (at 50.0 µM) it was inactive: -18.7%.
In the case of `CCCC#CC(O)(C(=O)OC1CN2CCC1CC2)C1CCCCC1` (configuration not stated), the growth inhibition was inactive: 47.7% in assay [1] (at 50.0 µM); inactive: 22.1% in assay [2] (at 50.0 µM); inactive: 36.5% in assay [3] (at 50.0 µM); inactive: 9.05% in assay [4] (at 50.0 µM); inactive: 24.9% in assay [5] (at 50.0 µM); inactive: 26.1% in assay [6] (at 50.0 µM).
Turning to `CC(C)C#CC(O)(C(=O)OC1C2CCN(CC2)C1C)C1CCCCC1` (configuration not stated), the growth inhibition in assay [1] (at 50.0 µM) is inactive: 27.1%; in assay [2] (at 50.0 µM) it was inactive: 18.6%; in assay [3] (at 50.0 µM), inactive: 22.4%; in assay [4] (at 50.0 µM), inactive: 14.6%; in assay [5] (at 50.0 µM) it was inactive: 20.6%; in assay [6] (at 50.0 µM), inactive: 25.6%.
Take `O=C(OCCN1C2CCCC1CCC2)C(O)(c1ccccc1)c1ccccc1`: the growth inhibition is inactive: -61.5% in assay [1] (at 50.0 µM); inactive: -4.8% in assay [2] (at 50.0 µM); inactive: -7.1% in assay [3] (at 50.0 µM); inactive: -0.05% in assay [4] (at 50.0 µM); inactive: 19.8% in assay [5] (at 50.0 µM); inactive: -12.8% in assay [6] (at 50.0 µM).
For `C=C(C)C#CC(O)(C(=O)OC1CN2CCC1CC2)c1ccccc1` (configuration not stated), the growth inhibition in assay [1] (at 50.0 µM) is inactive: 30.7%; in assay [2] (at 50.0 µM) it was inactive: 9.4%; in assay [3] (at 50.0 µM), inactive: 4.75%; in assay [4] (at 50.0 µM), inactive: 0.25%; in assay [5] (at 50.0 µM), inactive: 8.4%; in assay [6] (at 50.0 µM), inactive: 28.8%.
Take `CC(C)/C=C\C(O)(C(=O)OC1CN2CCC1CC2)c1ccccc1` (configuration not stated): the growth inhibition in assay [1] (at 50.0 µM) was inactive: -2.75%; in assay [2] (at 50.0 µM), inactive: 2.45%; in assay [3] (at 50.0 µM) it was inactive: 37.3%; in assay [4] (at 50.0 µM) it was inactive: 26.6%; in assay [5] (at 50.0 µM), inactive: 37.2%; in assay [6] (at 50.0 µM), inactive: 31%.
In the case of `CCN(CCCl)CCCCl`, the growth inhibition was inactive: -8.55% in assay [1] (at 50.0 µM); inactive: -21.4% in assay [2] (at 50.0 µM); inactive: -8.65% in assay [3] (at 50.0 µM); inactive: -27.9% in assay [4] (at 50.0 µM); inactive: 5.45% in assay [5] (at 50.0 µM); inactive: 17.1% in assay [6] (at 50.0 µM).
In the case of `CCCC/C=C\C(O)(C(=O)OC1CN2CCC1CC2)c1ccccc1` (configuration not stated), the growth inhibition in assay [1] (at 50.0 µM) is inactive: 21.4%; in assay [2] (at 50.0 µM) it was inactive: 2.45%; in assay [3] (at 50.0 µM) it was inactive: -16.6%; in assay [4] (at 50.0 µM), inactive: 4.9%; in assay [5] (at 50.0 µM), inactive: 0.05%; in assay [6] (at 50.0 µM), inactive: 13.8%.
As to `O=C(OC1CCN(Cc2ccccc2)C1)C(O)(c1ccccc1)c1ccccc1` (configuration not stated), the growth inhibition in assay [1] (at 50.0 µM) is inactive: 4.45%; in assay [2] (at 50.0 µM), inactive: -14.6%; in assay [3] (at 50.0 µM) it was inactive: -20.4%; in assay [4] (at 50.0 µM) it was inactive: -8.8%; in assay [5] (at 50.0 µM), inactive: 8.45%; in assay [6] (at 50.0 µM), inactive: 5.3%.
As for `O=C(OC1CC2CCCC(C1)N2Cc1ccccc1)C(O)(c1ccccc1)c1ccccc1` (configuration not stated), the growth inhibition is inactive: 46.2% in assay [1] (at 50.0 µM); inactive: 11.2% in assay [2] (at 50.0 µM); inactive: 49.6% in assay [3] (at 50.0 µM); inactive: 12.3% in assay [4] (at 50.0 µM); inactive: 27.9% in assay [5] (at 50.0 µM); inactive: 48.4% in assay [6] (at 50.0 µM).
Take `C#CCN1CCCC(OC(=O)C(O)(c2ccccc2)c2ccccc2)C1` (configuration not stated): the growth inhibition was inactive: 36.5% in assay [1] (at 50.0 µM); inactive: 0.5% in assay [2] (at 50.0 µM); inactive: 15.7% in assay [3] (at 50.0 µM); inactive: -23.9% in assay [4] (at 50.0 µM); inactive: -0.35% in assay [5] (at 50.0 µM); inactive: 22.1% in assay [6] (at 50.0 µM).
Turning to `C=C(C)C#CC(O)(C(=O)OC1CN2CCC1CC2)C(C)C` (configuration not stated), the growth inhibition in assay [1] (at 50.0 µM) is inactive: -24.9%; in assay [2] (at 50.0 µM), inactive: -25.7%; in assay [3] (at 50.0 µM), inactive: -13.3%; in assay [4] (at 50.0 µM) it was inactive: -11.9%; in assay [5] (at 50.0 µM), inactive: -32.5%; in assay [6] (at 50.0 µM), inactive: -54.2%.
Regarding `O=C(OC1CN2CCC1CC2)C(O)(/C=C/c1ccccc1)c1ccccc1` (configuration not stated), the growth inhibition in assay [1] (at 50.0 µM) is inactive: 24.1%; in assay [2] (at 50.0 µM), inactive: 16.2%; in assay [3] (at 50.0 µM), inactive: 24.2%; in assay [4] (at 50.0 µM), inactive: 2.45%; in assay [5] (at 50.0 µM), inactive: 11.1%; in assay [6] (at 50.0 µM) it was inactive: 39.8%.
Consider `C=CCN1CCN(C(Cc2ccccc2)c2ccccc2)CC1` (configuration not stated), for which the growth inhibition in assay [1] (at 50.0 µM) was inactive: 27.8%; in assay [2] (at 50.0 µM), inactive: 3%; in assay [3] (at 50.0 µM), inactive: 21.9%; in assay [4] (at 50.0 µM), inactive: 26.4%; in assay [5] (at 50.0 µM) it was inactive: 18.1%; in assay [6] (at 50.0 µM) it was inactive: 42.7%.
On to `CCC#CC(O)(C(=O)OC1CC2CCC(C1)N2C)c1ccccc1` (configuration not stated), for which the growth inhibition in assay [1] (at 50.0 µM) was inactive: 22.9%; in assay [2] (at 50.0 µM), inactive: 8.65%; in assay [3] (at 50.0 µM) it was inactive: 14.4%; in assay [4] (at 50.0 µM) it was inactive: 0.55%; in assay [5] (at 50.0 µM) it was inactive: 12.2%; in assay [6] (at 50.0 µM), inactive: 20%.
For the compound `CN1CCCC(COC(=O)C(O)(c2ccccc2)c2ccccc2)C1` (configuration not stated), the growth inhibition in assay [1] (at 50.0 µM) is inactive: -7.9%; in assay [2] (at 50.0 µM), inactive: 0.95%; in assay [3] (at 50.0 µM) it was inactive: -10.1%; in assay [4] (at 50.0 µM) it was inactive: -15.7%; in assay [5] (at 50.0 µM) it was inactive: -1.9%; in assay [6] (at 50.0 µM) it was inactive: -39.1%.
On to `CC#CC(O)(C(=O)OC1CCN(C)CC1)C(C)C` (configuration not stated), for which the growth inhibition in assay [1] (at 50.0 µM) is inactive: 22.8%; in assay [2] (at 50.0 µM), inactive: 2.8%; in assay [3] (at 50.0 µM), inactive: 0.05%; in assay [4] (at 50.0 µM) it was inactive: 3.1%; in assay [5] (at 50.0 µM), inactive: 12.1%; in assay [6] (at 50.0 µM), inactive: 20.3%.
